Results taken from patent US4824941A, “Specific antibody to the native form of 2'5'-oligonucleotides, the method of preparation and the use as reagents in immunoassays or for binding 2'5'-oligonucleotides in biological systems” (priority 1988, dated 1989).

Experiments:
Hela cells = test: 2'5'-oligo(A) content in interferon treated Hela cells; assay type: cell-based; conditions: Hela S3, 20 units/ml, 24 hrs
Description: This is an example for cells growing in culture, but is universally applicable to any biological material: cell cultures, organs, tissues, bodily fluids such as blood, urine, cerebrospinal fluids, milk or any other suitably available material. Cells in a petri dish are rapidly washed with buffered saline (this step is dispensed with in the case of bodily fluids), then enough ice cold 5% trichloracetic acid (TCA) to cover the layer of cells (3 ml for a 7 cm diameter petri dish) and the dish is kept on ice for 5 min. The TCA and detached cells are removed and centrifuged to remove the insoluble material, and the dish and pellet are re-extracted with a similar volume of 5% TCA and the supernatants pooled. Alternatively, in the case of a cell suspension culture, the cells are pelleted by centrifugation at room temperature, the cells resuspended in a volume of buffered saline equal to the volume of the pellet, and approximately 10 volumes of 5% TCA are added. The insoluble material is removed by centrifugation and the pellet extracted with 1/2 the previous volume of 5% TCA. The supernatants are pooled. All operations with TCA are performed between 0° C. and 5° C. […]
Cultures of Hela cells respond very well to interferon in the induction of 2'5'-oligo(A) synthetase (see example 1). The basal 2'5'-oligo(A) itself was too low to be measured by other methodology. […]

2'5'-oligo(A) synthetase = 2'5'-oligo(A) synthetase in interferon treated Hela cells; assay type: cell-based; conditions: Hela S3, 20 units/ml, 24 hrs
Description: Cultures of Hela cells respond very well to interferon in the induction of 2'5'-oligo(A) synthetase (see example 1). The basal 2'5'-oligo(A) itself was too low to be measured by other methodology. […] Hela cells of the S3 line are cultivated in the presence of 20 units/ml of interferon α2 for 24 hrs. The cells are centrifuged and processed according to example 4. The 2'5'-oligo(A) synthetase is assayed by methods well described in the literature in parallel cultures. The synthetase increases 10-fold over the basal level, while the 2'5'-oligo(A) itself remains at the basal level of 0.45±0.15 nM.

interferon α2: interferon α2, 20 units/ml for 24 hrs
2'5'-oligo(A) level (remains at the basal level) (Hela cells): 0.45 ± 0.15 nM
increase of 2'5'-oligo(A) synthetase over the basal level (2'5'-oligo(A) synthetase): 10 fold
